Data as given in patent publication US20170327559A1, “VIRAL INACTIVATION USING IMPROVED SOLVENT-DETERGENT METHOD” (Baxalta Incorporated, priority 2010, published 2017).

Experiments:
[1] = Temperature effects on solvent/detergent components before and after 0.2 μm filtration (HPLC); assay type: physicochemical; settings: for S/D component concentration after 0.2 μm filtration, Mean / S/D component concentration before 0.2 μm filtration, Mean: n = 3; for S/D component concentration after 0.2 μm filtration / S/D component concentration before 0.2 μm filtration: runs 1-3
Description: In order to evaluate the influence of a lower temperature on the mixing time of solvent/detergent components, 50 mL solvent/detergent solutions were prepared by adding 0.3% (v/v) TNBP, 1.0% (v/v) polyoxyethylene octyl phenyl ether (TRITON® X-100) and 0.3% (v/v) polysorbate 80 sorbitan monooleate (TWEEN® 80) and stirring at 4±2° C. for 10, 20, or 30 minutes. As the solvent/detergent solution already contained 0.1% polysorbate 80 sorbitan monooleate (TWEEN® 80), the final concentration for this compound was of 0.4%. The concentration of TNBP and polyoxyethylene octyl phenyl ether (TRITON® X-100) were determined simultaneously by using C18 RP-HPLC with a refractive index detector (RID). The concentration of polysorbate 80 sorbitan monooleate (TWEEN® 80) was determined by C1 RP-HPLC using an evaporative light scattering detector (ELSD). For the HPLC analysis of TNBP and polyoxyethylene octyl phenyl ether (TRITON® X-100), an isocratic elution is employed using 68% methanol in water. In the assay of polysorbate 80 sorbitan monooleate (TWEEN® 80), a gradient elution from 60% methanol in water to 100% methanol is used.
To evaluate the impact of the temperature toward a potential retention of solvent/detergent conponents during the filtration step, 50 mL solvent/detergent solutions were prepared by adding 0.3% (v/v) TNBP, 1.0% (v/v) polyoxyethylene octyl phenyl ether (TRITON® X-100) and 0.3% (v/v) polysorbate 80 sorbitan monooleate (TWEEN® 80), stirring at 4±2° C. for 30 minutes and the concentration of each component was measured as described above. The solvent/detergent solutions were then processed under three different temperature conditions: 22.5° C. with a warm up period of about 8 hours; 22.5° C. with a warm up period of about 2 hours; and 4° C. without any warm-up or preheating step. At the end of the incubation period, samples were filtrated through a 0.2 μm filter and TNBP, polyoxyethylene octyl phenyl ether (TRITON® X-100) and polysorbate 80 sorbitan monooleate (TWEEN® 80) concentrations were measured by HPLC.

[2] = Mixing time effects on solvent/detergent components (RP-HPLC)

CCCCOP(=O)(OCCCC)OCCCC
S/D component concentration after 0.2 μm filtration, Mean ([1]; 4° C./2 H): 0.27%
S/D component concentration before 0.2 μm filtration, Mean ([1]; 4° C./2 H): 0.27%
S/D component concentration after 0.2 μm filtration ([1]; 4° C./2 H): 0.27% and 0.28%
S/D component concentration before 0.2 μm filtration ([1]; 4° C./2 H): 0.27% and 0.28%
S/D component concentration after 0.2 μm filtration, Mean ([1]; 22.5° C./2 H): 0.28%
S/D component concentration before 0.2 μm filtration, Mean ([1]; 22.5° C./2 H): 0.28%
S/D component concentration after 0.2 μm filtration ([1]; 22.5° C./2 H): 0.28% and 0.29%
S/D component concentration before 0.2 μm filtration ([1]; 22.5° C./2 H): 0.28% and 0.27%
S/D component concentration after 0.2 μm filtration, Mean ([1]; 22.5° C./8 H): 0.27%
S/D component concentration before 0.2 μm filtration, Mean ([1]; 22.5° C./8 H): 0.26%
S/D component concentration after 0.2 μm filtration ([1]; 22.5° C./8 H): 0.28% and 0.25%
S/D component concentration before 0.2 μm filtration ([1]; 22.5° C./8 H): 0.23% and 0.28%
S/D component concentration, Mean ([2]; mean of 10, 20, 30 min stirring at 4±2° C.): 0.36 ± 0.01%
S/D component concentration ([2]; stirring at 4±2° C. for 10 min): 0.36%
S/D component concentration ([2]; stirring at 4±2° C. for 20 min): 0.35%
S/D component concentration ([2]; stirring at 4±2° C. for 30 min): 0.37%

Where “and” joins values, the source holds several entries; their conditions need not be identical. Equal values may be shown once.
